Laboratory results taken from PMC11012829 (International Journal of Nanomedicine, 2024).

Type: in vivo, male Sprague-Dawley rats
Conditions: oral, rats

- mean AUC0-t increased in the N-XBSD group compared to the free drugs (N-XBSD vs free drugs): 79.17%
- mean AUC0-t in the N-XBSD group versus free drugs group (p<0.05): significantly higher
- bioavailability after N-XBSD administration compared to the free drugs (same administration concentration): significantly higher
Substance: liquiritin apioside
